Measured values: EP0041644B1, “Salts of 2-hydroxymalonato diammine platinum (II) compounds, process for preparing said compounds and pharmaceutical compositions containing said compounds” (priority 1980, dated 1981)

Experiments:
Format in all cases: in vivo, mice
[1] = test system: B16 Melanoma; test: B16 Melanoma - Test 2 (ip tumor brei); conditions: QD +9
[2] = test system: B16 Melanoma; test: B16 Melanoma - Test 1 (ip tumor brei); conditions: for mice cured: ip B16, at the dose of maximum T/C
[3] = test system: L1210 Leukemia; test: L1210 Leukemia - Test 2; conditions: 4 mg/kg/inj ip, qd 1→9
Text: Intravenous administration of sodium salt was effective only when given on a multi-dose regimen (T/C of 143%) and was not as effective as when given ip or when compared to iv cis- diamminedichloroplatinum (II) (maximum T/C of 179%) on the same multi-dose schedule.

[4] = test system: Lewis Lung Carcinoma; test: Lewis Lung Carcinoma - Test 1 (ip, delayed therapy)
[5] = test system: L-1210 Leukemia; test: L-1210 Leukemia (Table IX); conditions: qd 1→9

[NH2][Pt]1([NH2])[O]C(=O)C(O)C(=O)[O]1 [2-Hydroxymalonato diammine platinum (II), 2-hydroxymalonato diammine platinum (II)]
Survivors Day 10 (60) ([1]; Day 10, 16 mg/kg/day ip): 9/10 | Survivors Day 10 (60) ([1]; Day 60 (figure in parentheses), 2 mg/kg/day ip): 1 | Survivors Day 10 (60) ([1]; Day 60 (figure in parentheses), 8 mg/kg/day ip): 1 | Survivors Day 10 (60) ([1]; Day 60 (figure in parentheses), 16 mg/kg/day ip): 7 | Survivors Day 5(60) ([2]; Day 60 (figure in parentheses), 4 mg/kg/day ip, QD 1→9, vehicle CMC + H2O): 2 | Survivors Day 5(60) ([2]; Day 60 (figure in parentheses), 16 mg/kg/day ip, QD 1→9, vehicle CMC + H2O): 5 | Survivors Day 5(60) ([2]; Day 60 (figure in parentheses), 24 mg/kg/day ip, QD 1→9, vehicle CMC + H2O): 1 | mice cured [2]: 4/10

[NH2][Pt]1([NH2])[O]C(=O)C([O-])C(=O)[O]1.[NH4+] [Example 1, 2-Hydroxymalonato diammine platinum (II), ammonium salt]
Survivors Day 5(60) ([2]; Day 60 (figure in parentheses), 8 mg/kg/day ip, QD 1→9, vehicle H2O): 1 | Survivors Day 5(60) ([2]; Day 60 (figure in parentheses), 16 mg/kg/day ip, QD 1→9, vehicle H2O): 1 | mice cured [2]: 1 of 10 | Survivors Day 5(60) ([2]; mouse, in vivo, ip, 8 mg/kg/day): 10/10 | Survivors Day 5(60) ([2]; mouse, in vivo, ip, 16 mg/kg/day): 8/10 | Survivors Day 5(60) ([2]; mouse, in vivo, ip, 24 mg/kg/day): 10/10 | Survivors Day 5(60) ([2]; mouse, in vivo, ip, 32 mg/kg/day): 5/10

[NH2][Pt]1([NH2])[O]C(=O)C([O-])C(=O)[O]1.[Na+] [Example 3, 2-Hydroxymalonato diammine platinum (II), sodium salt]
Survivors Day 5(30) [3]: 6/6 | Survivors Day 9(48) ([4]; Day 9, 4 mg/kg/inj ip, qd 5→13): 5/6 | Survivors Day 9(48) ([4]; Day 48 (figure in parentheses), 40 mg/kg/inj ip, d. 5,9&13): 1 | Survivors Day 9(48) ([4]; Day 48 (figure in parentheses), 60 mg/kg/inj ip, d. 5,9&13): 1 | Survivors Day 9(48) ([4]; Day 48 (figure in parentheses), 80 mg/kg/inj ip, d. 5,9&13): 2 | Survivors Day 9(48) ([4]; mouse, in vivo, ip, 8 mg/kg): 6/6 | Survivors Day 9(48) ([4]; mouse, in vivo, ip, 12 mg/kg): 6/6 | Survivors Day 9(48) ([4]; mouse, in vivo, ip, 16 mg/kg): 6/6 | Survivors Day 9(48) ([4]; mouse, in vivo, ip, 20 mg/kg): 6/6 | Survivors Day 9(48) ([4]; mouse, in vivo, ip, 40 mg/kg): 6/6 | Survivors Day 9(48) ([4]; mouse, in vivo, ip, 60 mg/kg): 6/6 | Survivors Day 9(48) ([4]; mouse, in vivo, ip, 80 mg/kg): 6/6 | Survivors Day 9(48) ([4]; mouse, in vivo, iv, 20 mg/kg): 6/6 | Survivors Day 9(48) ([4]; mouse, in vivo, iv, 40 mg/kg): 6/6 | Survivors Day 9(48) ([4]; mouse, in vivo, iv, 60 mg/kg): 6/6 | Survivors Day 9(48) ([4]; mouse, in vivo, iv, 80 mg/kg): 6/6

O=C1[O][Pt]2([NH]CC3(CCCCC3)C[NH]2)[O]C(=O)C1[O-].[Na+] [Example 9, 2-Hydroxymalonato (1,1-diaminomethylcyclohexane)-platinum (II), sodium salt]
Survivors Day 5(45) ([5]; 2 mg/kg/inj ip): 6/6 | Survivors Day 5(45) ([5]; 4 mg/kg/inj ip): 6/6
